A word on the IC50: it is the concentration at which inhibition is half-maximal.

Protein sequences, listed by entry. Tags and fused reporters are not part of them. Lines headed by an entry give the natural chain unless they say otherwise; changes in a name come on top.
UniProt P49841: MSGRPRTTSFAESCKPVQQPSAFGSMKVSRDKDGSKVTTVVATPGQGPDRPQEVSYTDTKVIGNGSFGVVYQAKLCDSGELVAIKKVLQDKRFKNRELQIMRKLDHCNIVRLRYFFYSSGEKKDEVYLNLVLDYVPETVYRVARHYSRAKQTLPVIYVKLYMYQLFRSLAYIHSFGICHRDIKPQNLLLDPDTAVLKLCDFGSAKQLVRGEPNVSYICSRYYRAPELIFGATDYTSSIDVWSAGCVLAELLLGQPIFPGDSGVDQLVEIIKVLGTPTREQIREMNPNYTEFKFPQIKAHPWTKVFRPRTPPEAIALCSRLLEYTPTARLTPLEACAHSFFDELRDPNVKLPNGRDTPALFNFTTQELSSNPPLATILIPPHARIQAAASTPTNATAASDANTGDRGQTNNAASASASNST

The results in this text go back to US20070088080A1, “Gsk-3 inhibitors isolated from marine organisms” (NEUROPHARMA, S.A., priority 2003, published 2007).

The assay addresses Recombinant human glycogen synthase kinase 3β (Homo sapiens, UniProt P49841). In words: GSK3β inhibition, radiometric kinase assay with GS-2 peptide and 33P-ATP.

For the compound `C/C(=C\C=C\C(C)CC/C=C(\C)CC1OC(=O)C(=O)C1=O)CCCc1ccoc1` (stereo not shown) [Tricantin], the concentration for half-maximal inhibition (IC50) turned out to be 7.5 µM.
